We go through one substance from patent US11624068B2, “Compositions and methods for improving immune system function” (Tufts Medical Center, Inc., priority 2016, dated 2023).

The assay relates to PD1, Lag3 and Tim3. The assay can be described thus: Flow cytometry of exhaustion markers in repeatedly stimulated T cells. It counts as cell-based, human. The note with it: 330 IU/ml exogenously supplemented IL2; FIG. 11. The text has this: The following antibodies were used for cell staining: PE-conjugated anti-human CD279 (PD-1) (cat. 12-2799), CD223 (LAG-3) (cat. 12-2239), Tim3 (cat. 12-3109), and CD3-PECyanine7 (cat. 25003182), all of which were purchased from eBioscience, and FITC-conjugated anti-human CD8 (Invitrogen) and CD4 (BD Biosciences, cat. 340133). Pacific Blue-conjugated PD1 (cat. 329920), PE-conjugated PD-L1 (cat. 329705) and purified PD-L1 (cat. 329702) was purchased from BioLegend. In addition, PE-conjugated (cat. 555783, Pharmingen) was used as an isotype control. T cell apoptosis was detected through flow cytometric analysis using the FITC Annexin V apoptosis detection kit I (BD Pharmingen, cat. 556547) in conjunction with the vital dye, propidium iodide (BD Pharmingen, cat. 51-66211E). […]
Human T cell isolation and culture in vitro. […] 48 hours after the first stimulation, cells were counted and washed, and beads were removed using a magnet. […]

Turning to “IL2: IL2 included in the growth medium (Chiron)”, the exhaustion marker progression result is reported as “does not block”.
